Assay results as given in ChEMBL document CHEMBL3244068 (J Med Chem, 1978).

Tests used:
W256 = assay: Antitumor activity against rat Walker 256 cells allografted in rat; format: functional
[1] = Stability of the compound in acetone assessed as hydrolysis at 66 degC after 30 mins; conditions: 0.5 h
L1210 = assay: Antitumor activity against mouse L1210 cells assessed as dose required to produce T/C of 125% administered for 15 days
P388 [2] = assay: Antitumor activity against mouse P388 cells allografted in mouse assessed as dose required to produce T/C of 180% administered for 9 days
P388 [3] = assay: Antitumor activity against mouse P388 cells allografted in mouse assessed as dose required to produce T/C of 125% administered for 9 days
P388 [4] = assay: Antitumor activity against mouse P388 cells allografted in mouse assessed as dose required to produce T/C of 125% administered for 10 days
P388 [5] = assay: Antitumor activity against mouse P388 cells allografted in mouse assessed as dose required to produce T/C of 180% administered for 10 days

Structure (SMILES) | log(%) [1] | also measured
NC(=O)c1ccc(N(CCCl)CCCl)cc1 | 0 | log1/CED90 (W256): 2.92
BrCCN(CCBr)c1ccc(-c2ccccc2)cc1 | 1.85 | 
CCOC(=O)c1ccc(N(CCCl)CCCl)cc1 | 0.18 | 
N#CSc1ccc(N(CCCl)CCCl)cc1 | 0.48 | 
O=C(O)Cc1ccc(N(CCCl)CCCl)cc1 |  | log K [1]: -3.99; log(1/C) (L1210): 4.79; log(1/C) (P388 [2]): 4.87; log(1/C) (P388 [3]): 5.19
Clc1ccc(N(CCBr)CCBr)cc1 | 1.82 | 
ClCCN(CCCl)c1ccccc1 | 1.3 | 
CC(=O)Nc1ccc(N(CCCl)CCCl)cc1 | 1.62 | log1/CED90 (W256): 4.46; log K [1]: -3.52
CCOC(=O)Cc1ccc(N(CCCl)CCCl)cc1 | 1.19 | log K [1]: -4.04
CSc1ccc(N(CCCl)CCCl)cc1 | 1.11 | 
BrCCN(CCBr)c1ccccc1-c1ccccc1 | 1.97 | 
Sc1ccc(N(CCCl)CCCl)cc1 | 1.18 | 
COc1ccc(N(CCCl)CCCl)cc1 | 1.76 | log(1/C) (L1210): 4.28
ClCCN(CCCl)c1ccc(-c2ccccc2)cc1 | 1.08 | 
CC(=O)Sc1ccc(N(CCBr)CCBr)cc1 | 1.41 | log1/CED90 (W256): 4.09
CCOC(=O)CCc1ccc(N(CCCl)CCCl)cc1 | 1.32 | log K [1]: -3.88
NC(=O)Sc1ccc(N(CCCl)CCCl)cc1 | 0.9 | 
O=C(O)c1ccc(N(CCBr)CCBr)cc1 |  | log1/CED90 (W256): 4.18
O=C(O)c1ccc(N(CCI)CCI)cc1 |  | log1/CED90 (W256): 3.26
CC(=O)Nc1ccc(N(CCI)CCI)cc1 |  | log1/CED90 (W256): 4.3
CCCCc1ccc(N(CCCl)CCCl)cc1 | 1.56 | log K [1]: -3.61
Sc1ccc(N(CCBr)CCBr)cc1 | 1.85 | 
ICCN(CCI)c1ccccc1 |  | log1/CED90 (W256): 4.08
O=Cc1ccc(N(CCCl)CCCl)cc1 |  | log1/CED90 (W256): 2.93

Structure (SMILES) | log(%) [1] | also measured
Cc1ccccc1N(CCCl)CCCl | 1.92 | 
CCOc1ccc(N(CCCl)CCCl)cc1 | 1.72 | log K [1]: -3.38
NC(Cc1cccc(N(CCCl)CCCl)c1)C(=O)O (stereo not given) |  | log(1/C) (P388 [4]): 6.09; log(1/C) (L1210): 5.71; log(1/C) (P388 [5]): 5.39
NS(=O)(=O)c1ccc(N(CCCl)CCCl)cc1 | 0.3 | log1/CED90 (W256): 2.82
Oc1ccc(N(CCCl)CCCl)cc1 | 1.75 | log K [1]: -3.32
COc1ccc(N(CCBr)CCBr)cc1 | 1.99 | 
BrCCN(CCBr)c1ccc2ccccc2c1 | 1.9 | 
COc1ccccc1N(CCCl)CCCl | 1.95 | 
Cc1ccc(N(CCCl)CCCl)cc1 | 1.58 | 
BrCCN(CCBr)c1ccccc1 | 1.9 | log1/CED90 (W256): 4.3
NS(=O)(=O)c1ccc(N(CCBr)CCBr)cc1 | 0.9 | log1/CED90 (W256): 3.68; log(1/C) (L1210): 3.55
NC(=O)Sc1ccc(N(CCBr)CCBr)cc1 | 1.6 | 
ClCCN(CCCl)c1ccc(Br)cc1 | 0.78 | log K [1]: -4.46
ClCCN(CCCl)c1cccc2ccccc12 | 1.7 | 
ClCCN(CCCl)c1ccc(Cl)cc1 | 0.95 | 
CC(C)(C)c1ccc(N(CCCl)CCCl)cc1 | 1.46 | 
CC(=O)Sc1ccc(N(CCCl)CCCl)cc1 | 0.48 | log1/CED90 (W256): 3.42
CC(=O)Nc1ccc(N(CCBr)CCBr)cc1 | 1.93 | log1/CED90 (W256): 5.04
ClCCN(CCCl)c1ccccc1-c1ccccc1 | 1.49 | 
CCOC(=O)c1cccc(N(CCCl)CCCl)c1 | 0.65 | log K [1]: -4.59
Oc1ccc(N(CCBr)CCBr)cc1 |  | log1/CED90 (W256): 5
N#CSc1ccc(N(CCBr)CCBr)cc1 | 1.28 | 
Nc1ccc(N(CCCl)CCCl)cc1 | 2 | 
